Earlier results on one molecule are cited in US12220419B2, “BCL-2 inhibitors” (Newave Pharmaceutical Inc., priority 2018, dated 2025).

The chains behind the UniProt entries cited, without tags or fusion partners.
UniProt P10415, whole entry: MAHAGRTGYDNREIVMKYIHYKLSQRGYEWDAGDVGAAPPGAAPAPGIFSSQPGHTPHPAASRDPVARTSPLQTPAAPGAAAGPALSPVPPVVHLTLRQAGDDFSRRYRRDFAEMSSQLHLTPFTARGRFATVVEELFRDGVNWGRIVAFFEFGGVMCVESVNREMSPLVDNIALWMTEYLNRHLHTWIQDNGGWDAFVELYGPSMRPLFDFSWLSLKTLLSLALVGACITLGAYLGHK

Each structure is given as a SMILES string.

The target in this data set is BCL-2 (Homo sapiens (Human), UniProt P10415). The settings on record: cited from earlier work.

With `CC1(C)CCC(c2ccc(Cl)cc2)=C(CN2CCN(c3ccc(C(=O)NS(=O)(=O)c4ccc(N[C@H](CCN5CCOCC5)CSc5ccccc5)c(S(=O)(=O)C(F)(F)F)c4)cc3)CC2)C1` [ABT-263], the inhibition constant Ki – broadly, a measure of affinity in units of concentration, obtained from inhibition or displacement – is at most 1 nM.
